We go through 25 compounds from patent US20090240027A1.

Protein sequences, listed by entry. Tags and fused reporters are not part of them. Residues count along the entry.
UniProt O43193, whole entry: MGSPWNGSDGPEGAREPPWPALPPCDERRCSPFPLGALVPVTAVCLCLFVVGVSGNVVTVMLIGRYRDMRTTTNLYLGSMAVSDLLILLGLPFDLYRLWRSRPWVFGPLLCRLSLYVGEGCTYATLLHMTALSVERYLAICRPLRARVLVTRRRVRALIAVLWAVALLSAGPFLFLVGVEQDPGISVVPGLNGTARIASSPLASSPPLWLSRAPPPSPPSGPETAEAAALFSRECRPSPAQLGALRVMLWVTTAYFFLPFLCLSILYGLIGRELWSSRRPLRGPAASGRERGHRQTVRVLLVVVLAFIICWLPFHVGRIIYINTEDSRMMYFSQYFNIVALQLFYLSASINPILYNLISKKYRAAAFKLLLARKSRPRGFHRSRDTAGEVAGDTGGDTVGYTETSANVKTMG
UniProt G1T803, 1-400: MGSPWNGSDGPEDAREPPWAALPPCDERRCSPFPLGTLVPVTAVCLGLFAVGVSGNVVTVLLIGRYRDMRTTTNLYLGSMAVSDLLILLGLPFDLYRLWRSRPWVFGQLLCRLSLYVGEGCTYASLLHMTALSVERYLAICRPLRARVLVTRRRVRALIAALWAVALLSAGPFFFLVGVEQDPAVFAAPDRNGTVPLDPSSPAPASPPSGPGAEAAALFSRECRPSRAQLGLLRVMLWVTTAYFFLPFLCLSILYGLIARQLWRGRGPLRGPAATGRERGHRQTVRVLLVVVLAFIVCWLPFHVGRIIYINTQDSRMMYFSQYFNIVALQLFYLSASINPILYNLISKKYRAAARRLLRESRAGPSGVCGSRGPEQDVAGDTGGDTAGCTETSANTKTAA

The Ki is the dissociation constant of the complex between target and ligand, obtained from inhibition or displacement. A word on the pA2: it is the negative logarithm of the molar antagonist concentration that doubles the agonist concentration needed for the same response. A word on the IC50: it is the concentration needed to halve the response being measured.

One assay has as its target T1, human motilin receptor (Homo sapiens, UniProt O43193). The assay is described as follows: Competitive radioligand binding assay (Method B1). As to conditions: read-out: Binding (Ki); Table 4; [125I]-motilin competition.
As to `CC(C)[C@H]1NC(=O)[C@@H](Cc2cccc(Cl)c2)NCCOc2cccnc2CCCNC(=O)[C@H](CC2CC2)NC1=O`, the Ki was in the range of 0.001 to 0.1 µM.

The assay is the same for the next values; noted with them: read-out: Ki (binding activity); Radioligand competitive binding assay, Method B1; values reported as ranges.
On to `CC1CNC(=O)[C@H](CC2CC2)NC(=O)[C@@H](C(C)C)NC(=O)[C@@H](Cc2cccc(Cl)c2)NCCOc2ccccc2C1` (stereo partly shown), for which the Ki lay in the range of 0.001 to 0.1 µM.

Regarding `CCC[C@@H]1NC(=O)[C@@H](C(C)C)NC(=O)[C@@H](Cc2ccccc2)NCCOc2ccccc2CCCNC1=O`, the Ki is 0.1 to 1 µM.

With `COc1ccc(C[C@H]2NCCOc3cccnc3CCCNC(=O)[C@H](CC3CC3)NC(=O)[C@@H](C(C)C)NC2=O)cc1`, the inhibition constant Ki lay in the range of 0.1 to 1 µM.

For the compound `CC(C)C[C@@H]1NC(=O)[C@@H](C(C)C)NC(=O)[C@@H](Cc2cccc(Cl)c2)NCCOc2cccnc2CCCNC1=O`, the Ki lay within 0.1 to 1 µM.

Regarding `CCC[C@@H]1NC(=O)[C@@H](C(C)C)NC(=O)[C@@H](Cc2ccc(O)cc2)NC[C@H](C)Oc2ccccc2CCCNC1=O`, the Ki lay within 0.1 to 1 µM.

For the compound `CC(C)[C@H]1NC(=O)[C@@H](Cc2ccc(F)cc2)NCCOc2ccccc2CCCNC(=O)[C@H](CC2CC2)NC1=O`, the Ki is 0.001 to 0.1 µM.

As for `CC(C)[C@H]1NC(=O)[C@@H](Cc2ccc(O)cc2)NCCOc2ccccc2/C=C/CNC(=O)CCNC1=O`, the Ki fell in the range of 0.1 to 1 µM.

For `CC(C)[C@H]1NC(=O)[C@@H](Cc2cccs2)NCCOc2ccccc2CCCNC(=O)[C@H](CC2CC2)NC1=O`, the Ki lay within 0.1 to 1 µM.

On to `CC(C)[C@H]1NC(=O)[C@@H](Cc2cccc(Cl)c2)NCCOc2cccnc2CCCNC(=O)[C@H](CC2CC2)NC1=O`, for which the Ki was in the range of 0.001 to 0.1 µM.

For the compound `CC(C)[C@H]1NC(=O)[C@@H](Cc2ccc(F)cc2)NCCOc2cccnc2CCCNC(=O)[C@H](CC2CC2)NC1=O`, the Ki fell in the range of 0.1 to 1 µM.

Turning to `CCC[C@@H]1NC(=O)[C@@H](C(C)C)NC(=O)[C@@H](Cc2ccc(O)cc2)NC/C=C/CCNC1=O`, the Ki is 0.1 to 1 µM.

With `CCC[C@@H]1NC(=O)[C@@H](C(C)C)OC(=O)[C@@H](Cc2ccc(OC)cc2)NCCOc2ccccc2CCCNC1=O`, the Ki is 0.1 to 1 µM.

Regarding `CCC[C@@H]1NC(=O)[C@@H](C(C)C)NC(=O)[C@@H](Cc2cccs2)NCCOc2ccccc2CCCNC1=O`, the Ki was in the range of 0.001 to 0.1 µM.

With `CC(C)[C@H]1NC(=O)[C@@H](Cc2cccc3ccccc23)NCCOc2cccnc2CCCNC(=O)[C@H](CC2CC2)NC1=O`, the Ki is 0.1 to 1 µM.

Take `CC(C)[C@H]1NC(=O)[C@@H](Cc2cccc(Cl)c2)NCCOc2ccccc2CCCNC(=O)[C@H](CC2CC2)NC1=O`: the Ki was 0.001 to 0.1 µM.

With `CCC[C@@H]1NC(=O)[C@@H](C(C)C)OC(=O)[C@@H](Cc2ccc(O)cc2)NCCOc2ccccc2CCCNC1=O`, the Ki is 0.1 to 1 µM.

Take `CCC[C@@H]1NC(=O)[C@@H](C(C)C)NC(=O)[C@@H](Cc2ccc(O)cc2)NC[C@@H](C)Oc2ccccc2CCCNC1=O`: the Ki lay in the range of 0.1 to 1 µM.

As to `CC(C)C[C@H]1C(=O)NCCCc2ccccc2OCCN[C@H](Cc2ccc(O)cc2)C(=O)N[C@H](C(C)C)C(=O)N1C`, the Ki was in the range of 0.1 to 1 µM.

As to `CCC[C@@H]1NC(=O)[C@@H](C(C)C)OC(=O)[C@@H](Cc2cccc3ccccc23)NCCOc2ccccc2CCCNC1=O`, the Ki was in the range of 0.1 to 1 µM.

In the case of `CC(C)[C@H]1NC(=O)[C@@H](Cc2ccc(O)cc2)NCCOc2ccccc2CCCNC(=O)[C@H](CN)NC1=O`, the Ki fell in the range of 0.1 to 1 µM.

Turning to `CCC[C@@H]1NC(=O)[C@@H](C(C)C)NC(=O)[C@@H](Cc2ccc(O)cc2)NCCOc2ccccc2CCCNC1=O`, the Ki was 0.001 to 0.1 µM.

For the compound `CC(C)C[C@@H]1NC(=O)[C@@H](C(C)C)NC(=O)[C@@H](Cc2cccc3ccccc23)NCCOc2ccccc2CCCNC1=O`, the Ki is 0.001 to 0.1 µM.

For the compound `CCC[C@@H]1NC(=O)[C@@H](C(C)C)NC(=O)[C@@H](Cc2cccc(F)c2)NCCOc2ccccc2C(C)CCNC1=O` (stereo partly shown), the Ki is 0.001 to 0.1 µM.

Regarding `CCC[C@@H]1OC(=O)[C@@H](C(C)C)NC(=O)[C@@H](Cc2ccc(O)cc2)NCCOc2ccccc2CCCNC1=O`, the Ki lay within 0.1 to 1 µM.

Regarding `CC(C)C[C@@H]1NC(=O)[C@@H](C(C)C)NC(=O)[C@@H](Cc2cccc(Cl)c2)NC/C=C/CCNC1=O`, the Ki lay within 1 to 10 µM.

The target in another assay is motilin receptor (Oryctolagus cuniculus, UniProt G1T803). The assay is described as follows: Rabbit duodenum contractility assay (Method B4). As to conditions: from Schild plots; antagonism of motilin-induced contraction of rabbit duodenum.
Compound `CC(C)[C@H]1NC(=O)[C@@H](Cc2cccc(Cl)c2)NCCOc2ccccc2CCCNC(=O)[C@H](CC2CC2)NC1=O` gave a pA2 of 6.95.

The target in a further assay is T1, human motilin receptor. The assay is described as follows: Aequorin functional assay (Method B2). As to conditions: read-out: IC50, Aequorin (Method B2); antagonist testing against motilin at EC80 (0.5 nM).
Take `CC(C)[C@H]1NC(=O)[C@@H](Cc2cccc(Cl)c2)NCCOc2cccnc2CCCNC(=O)[C@H](CC2CC2)NC1=O`: the IC50 was 0.1 to 1 µM.
